GRP78 ERSR act = inducers of ER stress response in human glioma cells. AID 602332. Potency, µM, inactives show top-dose activation, most hits filed as activators. hit rate 0.02% among 420,000. U87-MG GRP78 promoter luciferase reporter, 16 h; also: potency is read from the fitted curve at half-maximal effect; series mostly up to about 76 µM; % of control where 0% means no effect; nearly all actives have a fitted effect of over 35% in size
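Stably transfected U87-MG glioma cells carrying a GRP78-based luciferase sensor; 16 h compound incubation. Luminescence end-point read 10 min after Bright-Glo addition at room temperature.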
miR-21 reporter = miR-21 reporter, rising signal | HeLa miR-21 FLuc reporter, luciferase, 48 h | Potency, µM (highest dose often 38.3 µM), for inactives: at the top dose reporter change, positive = more light | 340,000 tested, under 10 active | AID 2288; active = well fitted rising curve with a large enough effect; inconclusive = small, poorly fitted or top-dose-only effect; inactive = no such curve, though single readings can be large or run the other way;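 further: % of control where 0% means no effect; miR-21 action dims this reporter so a rising signal means less miR-21 action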
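HeLa miR-21-FLuc reporter line, endogenous miR-21; 2000 cells/well in DMEM/10% FBS; compound titration up to ~40uM final, 48 h, 37 degree Celsius; luciferase detection reagent, 15 min lysis, CCD luminescence.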
Nrf2 activator = Nrf2 pathway activation; hit rate 0.31% among 410,000; Potency, µM (highest dose often 46.1 µM), inactives show at the top dose activation, hits mostly activators; AREc32 ARE-luciferase reporter (MCF7-derived line), luminescence, 24 h; also: potency is read from the fitted curve at half-maximal effect; % of control where 0% means no effect; nearly all actives have a fitted effect of over 65% in size
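For detection, Steady-Glo was added and plates sat 30 min at RT; before that, AREc32_Fluc cells grown overnight in OPTI-MEM/5% FBS had been treated with 23 nL compound for 24 hr at 37 deg C.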
PTAP TSG101 blk = blocks PTAP/TSG101 interaction to inhibit HIV-1 budding. Potency, µM (titrated, usually from 115 µM), without a hit: at the highest dose activity change, negative = inhibition, most hits filed as inhibitors. Fluorescence polarization, FITC-PTAP peptide / Tsg101 binding. Q99816. 340,000 tested, under 10 active; active = well fitted inhibition curve with a large enough effect in the main read-out, with a control signal flat, not every such curve was filed as active; inconclusive = small, poorly fitted or top-dose-only effect, or effect the other way, or a change in a side signal; inactive = no such curve, though single readings can be large or run the other way; also: potency is read from the fitted curve at half-maximal effect; % of control where 0% means no effect
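Tsg101 binding domain (10 uM final) was mixed with compound and a FITC-labeled PTAP peptide (50 nM final) in HEPES pH 7.5 buffer with NaCl, Tween 20, EDTA and TCEP; fluorescence polarization was read after 20 min at r.t.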
Nrf2 inh = Nrf2 pathway inhibition; A549 ARE-Fluc reporter, luciferase luminescence, 18-24 h; hit rate 2.1% among 360,000; Potency, µM (series often up to 46 µM), for inactives: at the top dose activity change, negative = inhibition, most hits filed as inhibitors; also: potency is read from the fitted curve at half-maximal effect; % is scaled to controls: 0 for no effect and ±100 for the full control effect; nearly all actives have a fitted effect of over 60% in size
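Two sequential reads on A549 ARE_Fluc cells exposed to compound for 18-24 h: a CellTiter-Fluor fluorescence read for viability, then a luciferase luminescence read for Nrf2/ARE activity.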
A549 tox = counter-screen for Nrf2 inhibitors: cytotoxicity in A549 cells; A549 ARE-Fluc cells, CellTiter-Fluor viability, 18-24 h; Potency, µM (doses to about 46 µM), for the others: at the highest dose activity change, negative = cytotoxicity, actives largely listed as inhibitors; hit rate 0.16% among 390,000; AID 504648; also: potency is read from the fitted curve at half-maximal effect; % is scaled to controls: 0 for no effect and ±100 for the full control effect
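Cytotoxicity counterscreen: CellTiter-Fluor fluorescence was measured in A549 ARE_Fluc cells after 18-24 h of compound exposure in a concentration series. The subsequent BugLite luminescent read reports ARE-luciferase activity.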
Starred values were filed as active, the others as inactive; ? = inconclusive; / = not tested or not shown; [ ] = dose if it differs, or a comment. This is a sample that favours compounds with a hit; in the whole collection about 2.1% have one here. Unless noted, calls follow the shape of the dose curve; as a rule, active = well fitted curve in the direction sought with a large enough effect; inconclusive = small, poorly fitted or top-dose-only effect, or another doubt; inactive = no such curve, though single readings can be large; an effect the other way counts as inactive or inconclusive.

Codes – A = GRP78 ERSR act; B = miR-21 reporter; C = Nrf2 activator; D = PTAP TSG101 blk; E = Nrf2 inh; F = A549 tox
O=C(Cn1cnc2ccccc2c1=O)Nc1ccc2c(c1)OCO2
  A: 9%	B: -57%	C: 3%	D: 0%	E: ?	F: 9%

O=C(Cn1cnc2ccccc21)Nc1ccc2c(c1)OCCCO2
  A: 3%	B: /	C: 0%	D: 0%	E: 13µM*	F: -15%

Cc1ccc2ncnc(Nc3ccc(C)c(C)c3)c2c1
  A: 4%	B: 1%	C: 3%	D: -3%	E: 15µM*	F: -1%

O=C(CN(c1cccc(Cl)c1)S(=O)(=O)c1ccc(Cl)cc1)NCc1ccccn1
  A: -1%	B: 15%	C: 2%	D: -1%	E: 21µM*	F: ?

COc1ccc(S(=O)(=O)N(CC(=O)NCc2ccccn2)c2ccc(Cl)cc2)cc1
  A: 3%	B: 0%	C: 2%	D: -11%	E: 0%	F: 3%

CCCCCN1C(C(=O)c2ccccc2)=C(OC(=O)CC)c2ccccc2S1(=O)=O
  A: -4%	B: ?	C: -2%	D: /	E: 5.8µM*	F: ?

CCCCN1C(C(=O)c2ccccc2)=C(OC(=O)CC)c2ccccc2S1(=O)=O
  A: -6%	B: ?	C: -3%	D: /	E: 21µM*	F: ?

CCN1C(C(=O)c2ccccc2)=C(OC(=O)COc2ccccc2)c2ccccc2S1(=O)=O
  A: -2%	B: ?	C: 0%	D: /	E: ?	F: 15µM*

CCN1C(C(=O)c2ccccc2)=C(OC(=O)C(C)C)c2ccccc2S1(=O)=O
  A: 1%	B: ?	C: 0%	D: /	E: ?	F: ?

CCCN1C(C(=O)c2ccccc2)=C(OC(=O)c2ccc(C)cc2)c2ccccc2S1(=O)=O
  A: 0%	B: ?	C: -2%	D: /	E: 23µM*	F: ?

CCCN1C(C(=O)c2ccccc2)=C(OC(=O)c2ccc(F)cc2)c2ccccc2S1(=O)=O
  A: 0%	B: ?	C: -1%	D: /	E: ?	F: ?

Cc1cc2c(s1)c1cnn(Cc3ccc(Cl)c(F)c3)c(=O)c1n2C
  A: /	B: /	C: /	D: /	E: -6%	F: 0%

COc1ccc2[nH]c3c(N4CCc5ccccc5C4)ncnc3c2c1
  A: -12%	B: ?	C: -2%	D: -6%	E: 16µM*	F: 18µM*

CCOC(=O)N1CCN(c2ncnc3c2[nH]c2ccc(OC)cc23)CC1
  A: -3%	B: 2%	C: 3%	D: -9%	E: ?	F: -10%

Fc1ccc2[nH]c3c(N4CCN(c5ccccc5)CC4)ncnc3c2c1
  A: -17%	B: 29%	C: -2%	D: -2%	E: 13µM*	F: ?

COc1ccc2[nH]c3c(Cl)ncnc3c2c1
  A: -2%	B: 12%	C: 0%[9.22 µM]	D: -2%	E: 0%	F: 0%

OC1(c2cccc(C(F)(F)F)c2)CCN(c2ncnc3c2[nH]c2ccc(F)cc23)CC1
  A: -18%	B: ?	C: -3%	D: 3%	E: 12µM*	F: 21µM*

CCOC(=O)N1CCN(c2ncnc3c2[nH]c2ccc(F)cc23)CC1
  A: -8%	B: ?	C: 3%	D: -3%	E: 15µM*	F: -14%

O=C(CCCN1CCC(O)(c2cccc(C(F)(F)F)c2)CC1)c1ccc(F)cc1
  A: -2%	B: /	C: 7%	D: -5%	E: 15%	F: -10%

Cc1ccc2nc(SCC(=O)N3CCC4(CC3)CC4C(=O)Nc3ccc(F)c(F)c3)[nH]c2c1 (configuration not stated)
  A: 4%	B: /	C: /	D: /	E: /	F: /

CC(=O)Nc1ccc(/C=C/c2sc3ccccc3[n+]2CCCCI)cc1
  A: -4%	B: /	C: /	D: /	E: /	F: /

CC(C)(C)n1ncc2c(=O)n(Cc3ccc(Cl)cc3F)cnc21
  A: -2%	B: /	C: /	D: /	E: /	F: /

Cn1c2cc(S(C)(=O)=O)sc2c2cnn(Cc3ccccc3F)c(=O)c21
  A: /	B: /	C: /	D: /	E: -2%	F: -4%

C1=C(c2ccc3c(c2)CN(Cc2cccn2-c2ncccn2)CCO3)Cc2ccccc21
  A: 1%	B: /	C: /	D: /	E: /	F: /

C=Cc1cc2c(s1)c1cnn(Cc3ccccc3F)c(=O)c1n2C
  A: /	B: /	C: /	D: /	E: -4%	F: -5%

O=C(CN1Cc2ccccc2OC(c2ccsc2)C1)N1CCC(c2nc3ccccc3[nH]2)CC1 (configuration not stated)
  A: 0%	B: /	C: /	D: /	E: /	F: /

O=C(c1ccco1)N1CCN(c2ncnc3c2[nH]c2ccc(Br)cc23)CC1
  A: -10%	B: 11%	C: -1%	D: -7%	E: 8.2µM*	F: -17%

CN(C)/C=C/c1oc2ccc(O)cc2c1[N+](=O)[O-]
  A: 2%	B: -36%	C: 7%	D: -3%	E: ?	F: 16µM*

Reprinted at random: three records from the list
Codes – A = GRP78 ERSR act; B = miR-21 reporter; C = Nrf2 activator; D = PTAP TSG101 blk; E = Nrf2 inh; F = A549 tox
CN(C)/C=C/c1oc2ccc(O)cc2c1[N+](=O)[O-]
  A: 2%	B: -36%	C: 7%	D: -3%	E: ?	F: 16µM*

C1=C(c2ccc3c(c2)CN(Cc2cccn2-c2ncccn2)CCO3)Cc2ccccc21
  A: 1%	B: /	C: /	D: /	E: /	F: /

C=Cc1cc2c(s1)c1cnn(Cc3ccccc3F)c(=O)c1n2C
  A: /	B: /	C: /	D: /	E: -4%	F: -5%
